For test [1], the target named is T1, adenosine receptor 2A (A2A) (Homo sapiens, UniProt P29274). Also on record: CEREP (Poitiers, France), paid service. To be noted: S1 Table, compounds given as SMILES, downloaded from ChEMBL; cited from earlier work.
Test [2] has as its target T1, adenosine receptor 2A (A2A). Briefly: Functional assay monitoring Ca2+ flux (DiscoveRx).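 Also: concentration-response testing with 10 µM as highest concentration.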 To be noted: read-out: IC50, Ca2+, M. (Calcium assays in cells follow changes in intracellular calcium, usually with a dye or a luminescent sensor.)
Test [3] has the same target. Briefly: Functional antagonist assay monitoring cAMP (CEREP). To be noted: read-out: IC50, cAMP, M.
For test [4] the target is unchanged. Briefly: Competition binding assay using radioactive ligands (CEREP).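 Also: compounds screened at a single fixed 10 µM concentration for displacement of a radioligand.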 To be noted: read-out: %inhibition, binding. Also on record: dose or concentration left out as unconfirmed.

Broadly, the IC50 is the midpoint of a concentration-inhibition curve. For `Nc1nc2c(cnn2CCCc2ccccc2)c2nc(-c3ccco3)nn12`, in test [1], the IC50 is 18 nM.

As to `CCOc1ccccc1OC(c1ccccc1)C1CNCCO1` (stereo not shown) [Reboxetine], the inhibition in test [2], in test [3] and in test [4] was less than 50% in each case.

As for `C[C@@H]1C[C@H]2[C@@H]3C[C@H](F)C4=CC(=O)C=C[C@]4(C)[C@@]3(F)[C@@H](O)C[C@]2(C)[C@@]1(O)C(=O)CO` [Flumethasone], the inhibition in test [2], in test [3] and in test [4] was less than 50% in each case.

(Values after article PMC6317804, “The integration of pharmacophore-based 3D QSAR modeling and virtual screening in safety profiling: A case study to identify antagonistic activities against adenosine receptor, A2A, using 1,897 known drugs” (PLoS ONE, 2019).)
